High-throughput results from PubChem.
In the library only some 1.7% were active in any assay of this set; here they are far more common.
CAL PDZ FP-1 = inhibitors of human CAL PDZ peptide binding | purified CAL PDZ, TMR-peptide fluorescence polarization, 1 h | inhibition, % at 24.9 µM | 0.92% of 300,000 active;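 active = mean inhibition of at least 30% with at least half of replicates also reaching 30%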;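 also: 0% = DMSO neutral control and 100% = excess unlabeled competitor peptide PRC23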
DYRK1A inh = inhibitors of rat Dyrk1A kinase. Q63470. ADP-Glo luminescence, NFATc1 peptide. inhibition, % at 12.5 µM. 0.43% of 310,000 active; in the data active = inhibition above about 50%;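 also: plate controls were vehicle with enzyme for no effect and no enzyme for full effect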
CDK5 p35 inh = blocks human CDK5/p35 kinase activity. Q00535+Q15078. Recombinant CDK5/p35, ADP-Glo luminescence, 60 min. inhibition, % at 10 µM. 0.01% of 330,000 active. AID 488839;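 active = highest replicate inhibition of at least 50% and at least 75% of replicates reaching 50%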;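 also: plate controls were DMSO neutral control for no effect and GW8510 at 10 µM for full effect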
UUG fidelity = alters start codon recognition fidelity in yeast. S. cerevisiae UUG-firefly luciferase reporter, luminescence/redox ratio. 350,000 tested, 0.13% active. activity score, % at 18.7 µM. AID 602363;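 active means replicate mean at a twofold rise or more, about +100% in these data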;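 further: firefly luciferase made from a UUG start codon reports start codon fidelity; reporter light over untreated wells divided by growth signal over untreated wells; some hits fall short of that in this replicate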
CAL PDZ FP-2 = blocks peptide binding to human CAL PDZ domain. purified CAL PDZ, TMR-peptide fluorescence polarization, 1 h. AID 504414. 0.02% of 330,000 active. inhibition, % at 20 µM;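 active = highest replicate inhibition of at least 40%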;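 also: plate controls were DMSO neutral control wells for no effect and unlabeled competitor peptide control wells for full effect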
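Read-out basis: mP drop reported as inhibition | Assay system: Tagged CAL PDZ protein CerCALP, purified | Benchmarks: Unlabelled peptide for full inhibition, DMSO wells as neutral | Schedule: 1 h incubation at room temperature before polarization reading | Buffer or medium: Sodium phosphate/NaCl buffer pH 7.4 with TCEP, IgG, Thesit | Doses: Single point, 20 µM | Measured by: Fluorescence polarization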
dFosB act-1 = enhances mouse delta FosB homodimer DNA binding. AID 493131. activation, % at 25 µM. purified delta FosB, TAMRA-CDK5 oligo fluorescence polarization; percent of positive-control signal above neutral wells. P13346. 0.99% of 340,000 active;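 active = mean activation above about 17%, with every replicate also reaching it, limit read from the data, passing the limit was not always enough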
dFosB act-2 = enhances mouse delta FosB homodimer binding to DNA; shares compounds with dFosB act-1; 2,400 tested, under 10 active; activation, % at 24.9 µM; purified delta FosB, TAMRA-CDK5 oligo fluorescence polarization; normalised: neutral wells 0, positive control 100;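 active = highest replicate activation at or above 34% and every replicate reaching that threshold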;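 also: higher polarization means more probe DNA bound by delta FosB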
* = called active by the depositor; . = not tested or not shown; ! = a repeat was not active.

Results follow in this order: CAL PDZ FP-1	DYRK1A inh	CDK5 p35 inh	UUG fidelity	CAL PDZ FP-2	dFosB act-1	dFosB act-2
1	Cc1ccc(C2(C(F)(F)F)NC(=O)N3C(=C2C#N)Nc2ccccc23)cc1 (configuration not stated)
  -5	-2	1	-18	1	23*	6
2	COc1ccc(NC(=O)N[C@H]2C=C[C@@H](CC(=O)NCc3ccccn3)O[C@@H]2CO)cc1
  .	.	.	-16	.	.	.
3	O=C(COC(=O)c1cc(Br)ccc1O)NNC(=O)c1ccc(Cl)cc1
  -3	3	0	2	-1	26*	3
4	N#CC1=C(N)N2C(=C(C#N)C1c1cccc(Br)c1)Nc1ccccc12 (configuration not stated)
  -3	-3	0	.	-2	27*	-1
5	CC(C)NC(=O)N1[C@H](C#N)[C@@H](c2ccc(C#CC3CC3)cc2)[C@@H]1CO
  .	.	.	0	.	.	.
6	CC/C(=N\NC(=O)CSCc1ccccc1Br)c1ccc2c(c1)OCCO2
  -1	-7	-1	-14	-1	20*	0
7	O=[N+]([O-])c1ccc2[nH]cc(S(=O)(=O)N3CCN(c4cccc(Cl)c4)CC3)c2c1
  4	1	0	-11	-1	26*	4
8	C[C@H]1CN([C@@H](C)CO)S(=O)(=O)c2ccc(C3=CCCC3)cc2O[C@@H]1CN(C)C(=O)c1ccncc1
  .	.	.	-13	.	.	.
9	O=C(CCC(=O)c1ccc(Oc2ccccc2)cc1)Nc1cccc(Cl)c1
  8	10	-1	0	-1	26*	0
10	CCCCNC(=O)C(OC(=O)c1ccccc1)c1ccco1 (configuration not stated)
  .	.	.	-8	.	.	.
11	COc1cc(-c2ccc3oc(-c4ccsc4)cc(=O)c3c2)cc(OC)c1OC
  -5	-4	0	-14	-9	44*	-12
12	COc1ccccc1CC(=O)Nc1cc(Cl)ccc1O
  -3	3	-3	.	-2	-3	.
13	O=C(COc1ccccc1Cl)Nc1ccc(NC(=O)c2ccco2)cc1
  6	-6	2	-8	0	21*	7
14	O=C(COc1ccccc1Cl)Nc1cc(Cl)ccc1O
  -2	6	-3	.	0	22*	-1
15	COc1cc(NC(=O)COc2ccccc2[N+](=O)[O-])ccc1NC(=O)c1ccco1
  -5	-5	1	-2	-2	34*	3
16	C[C@@H]1CN([C@H](C)CO)S(=O)(=O)c2ccc(-c3cccc(C#N)c3)cc2O[C@@H]1CN(C)Cc1cccc(F)c1
  .	.	.	-3	.	.	.
17	CS(=O)(=O)Nc1ccc2c(c1)[C@@H]1C[C@@H](CC(=O)N3CCOCC3)O[C@@H](CO)[C@@H]1O2
  .	.	.	6	.	.	.
18	Cc1ccccc1S(=O)(=O)NCC[C@@H]1CC[C@@H](NC(=O)C2CCCCC2)[C@H](CO)O1
  .	.	.	5	.	.	.
19	O=C(C[C@H]1C=C[C@H](NC(=O)Nc2ccccc2F)[C@@H](CO)O1)NCc1ccc(F)cc1
  .	.	.	-11	.	.	.
20	CC(C)NC(=O)Nc1ccc2c(c1)C(=O)N([C@@H](C)CO)C[C@@H](C)[C@H](CN(C)Cc1ccncc1)O2
  .	.	.	-10	.	.	.

The listing continues.
Letter code – A = CAL PDZ FP-1; B = DYRK1A inh; C = CDK5 p35 inh; D = UUG fidelity; E = CAL PDZ FP-2; F = dFosB act-1; G = dFosB act-2
21	Cc1cccc(S(=O)(=O)N2C[C@@H](O)COC[C@@H]3O[C@H](CC(=O)NCc4ccc5c(c4)OCO5)CC[C@H]32)c1
  A: . | B: . | C: . | D: 8 | E: . | F: . | G: .

22	CCC(=O)Nc1cccc(NC(=O)c2ccc3c(c2)OCO3)c1
  A: 50* | B: -2 | C: 0 | D: -3 | E: -1 | F: 28* | G: 1

23	C/C(=N/NC(=O)c1ccc2c(c1)OCO2)c1ccc(NC(=O)c2ccc(F)cc2)cc1
  A: -4 | B: 0 | C: -1 | D: -4 | E: 1 | F: 43* | G: 2

24	C/C(=N\NC(=S)Nc1ccc(F)cc1)c1ccc2c(c1)OCCO2
  A: . | B: 1 | C: -1 | D: -36 | E: -1 | F: -8 | G: .

25	COc1cccc(NC(=O)c2ccc3c(c2)OCO3)c1
  A: -2 | B: 12 | C: 5 | D: -31 | E: -1 | F: 1 | G: .

26	O=C(CSc1nnc(-c2n[nH]c3ccccc23)n1-c1ccccc1)Nc1cccc(Cl)c1
  A: -6 | B: -1 | C: -3 | D: . | E: 0 | F: 25* | G: 8

27	CCc1ccc(NC(=O)CSc2nnc(-c3n[nH]c4ccccc34)n2-c2ccccc2)cc1
  A: -1 | B: 0 | C: 1 | D: . | E: 0 | F: 9 | G: .

28	C[C@H]1CN([C@@H](C)CO)C(=O)c2cc(-c3cncnc3)cnc2O[C@H]1CN(C)C(=O)Cc1ccccc1
  A: . | B: . | C: . | D: 9 | E: . | F: . | G: .

29	COc1ccc(OCc2nnc(NC(=O)Nc3ccc(F)cc3)s2)cc1
  A: 1 | B: -7 | C: -1 | D: -1 | E: -2 | F: 73* | G: -1

30	O=C(N/N=C/c1ccco1)c1cc(-c2ccc(Cl)cc2)n[nH]1
  A: 1 | B: -3 | C: 0 | D: . | E: -1 | F: 25* | G: 3

31	Cc1ccc(-c2cc(C(=O)N/N=C/c3ccco3)[nH]n2)cc1
  A: -10 | B: 11 | C: 1 | D: -16 | E: . | F: 2 | G: .

32	Cc1nn(CC(=O)NCCc2cccs2)c(=O)c2cc3ccccc3n12
  A: -8 | B: -2 | C: 2 | D: -6 | E: 0 | F: 26* | G: 4

33	CC1CC(C)CN(S(=O)(=O)c2ccc3c(c2)oc(=O)n3CC(=O)N(C)Cc2ccccc2)C1 (configuration not stated)
  A: . | B: 5 | C: -1 | D: -2 | E: -1 | F: 47* | G: 0

34	CCCCNC(=O)Cn1c(=O)oc2cc(S(=O)(=O)N3CC(C)CC(C)C3)ccc21 (configuration not stated)
  A: . | B: -6 | C: 2 | D: -17 | E: -1 | F: 8 | G: .

35	CN1CCN(Cc2nc3ccccc3c(=O)n2Cc2nc(-c3ccc4ccccc4c3)cs2)CC1
  A: -4 | B: -4 | C: 0 | D: . | E: -5 | F: 27*! | G: 3

36	C[C@@H]1CN([C@@H](C)CO)C(=O)c2cccc(NC(=O)c3cnccn3)c2O[C@@H]1CN(C)Cc1ccc(C(F)(F)F)cc1
  A: . | B: . | C: . | D: -8 | E: . | F: . | G: .

37	COc1ccc(NC(=O)Nc2ccc(F)cc2F)c(C)c1
  A: . | B: 0 | C: -7 | D: -12 | E: -1 | F: 0 | G: .

38	Cc1cc([N+](=O)[O-])ccc1NC(=O)Nc1ccc(F)cc1F
  A: -1 | B: 1 | C: 1 | D: . | E: -2 | F: 24* | G: 2

39	C[C@@H]1CN([C@@H](C)CO)C(=O)c2cc(NC(=O)C3CC3)ccc2O[C@H]1CN(C)S(=O)(=O)c1cn(C)cn1
  A: . | B: . | C: . | D: -1 | E: . | F: . | G: .

40	C[C@@H]1CN([C@@H](C)CO)S(=O)(=O)c2ccc(C#CC3CC3)cc2O[C@H]1CN(C)C(=O)CC1CC1
  A: . | B: . | C: . | D: 17 | E: . | F: . | G: .

41	C[C@H]1CN([C@@H](C)CO)C(=O)c2cccc(NC(=O)NC3CCCCC3)c2O[C@H]1CN(C)Cc1ccc2c(c1)OCO2
  A: . | B: . | C: . | D: 4 | E: . | F: . | G: .

42	Cc1ccc(OCC(=O)Nc2ccncc2)c(C)c1
  A: -4 | B: 0 | C: 1 | D: -11 | E: 8 | F: -1 | G: .

43	Cc1ccc(OCC(=O)Nc2ccc(-c3nc4ncccc4o3)cc2)c(C)c1
  A: -2 | B: -3 | C: 0 | D: -9 | E: -2 | F: 73* | G: 0

44	C[C@@H]1CN([C@H](C)CO)C(=O)c2cc(NC(=O)Nc3ccc4c(c3)OCO4)ccc2O[C@@H](C)CCCCO[C@H]1CN(C)Cc1ccncc1
  A: . | B: . | C: . | D: 3 | E: . | F: . | G: .

Structures listed above marked active in CAL PDZ FP-1:
no.	mol	CAL PDZ FP-1	DYRK1A inh	CDK5 p35 inh	UUG fidelity	CAL PDZ FP-2	dFosB act-1
22	CCC(=O)Nc1cccc(NC(=O)c2ccc3c(c2)OCO3)c1	50*	-2	0	-3	-1	28*

Full records, looked up by structure.
C[C@@H]1CN([C@@H](C)CO)S(=O)(=O)c2ccc(C#CC3CC3)cc2O[C@H]1CN(C)C(=O)CC1CC1 reads CAL PDZ FP-1: .; DYRK1A inh: .; CDK5 p35 inh: .; UUG fidelity: 17; CAL PDZ FP-2: .; dFosB act-1: .; dFosB act-2: .
C[C@H]1CN([C@@H](C)CO)C(=O)c2cccc(NC(=O)NC3CCCCC3)c2O[C@H]1CN(C)Cc1ccc2c(c1)OCO2 reads CAL PDZ FP-1: .; DYRK1A inh: .; CDK5 p35 inh: .; UUG fidelity: 4; CAL PDZ FP-2: .; dFosB act-1: .; dFosB act-2: .
